Results on 1 molecule are retold here after patent publication US10792277B2, “Methods of treatment of fibrosis and cancers” (GENFIT, priority 2013, dated 2020).

For the assay, the system named is VEGFR2 gene expression in hHSC. Briefly: Gene expression (quantitative RT-PCR) in TGFβ1-activated hHSC. It is filed as cell-based, human. The following applies: 3 μM; TGFβ1 1 ng/mL, 24 hours, serum free. The procedure: The human primary hepatic stellate cells (hHSC) (ScienCell) were cultured under standard conditions, as described above. For experiments to determine gene expression patterns, hHSC were plated at a density of 1.4×10^5 cells/well into 12-well plates and were cultured overnight. […] Cells were treated with compounds in addition to TGFβ1 (1 ng/mL) in a serum-free and SteCGS-free medium for 24 hours.
Total RNA was isolated using RNeasy® Mini Kit (Qiagen) following manufacturer's instructions.
Quantitative PCR was then carried out using the MyiQ Single-Color Real-Time PCR Detection or the iCycler iQ Multiplex Real-Time PCR Detection System (both systems from Biorad). Briefly, PCR reactions were performed in 96 Well plates on 5 μL of 5× diluted reverse transcription mix using the iQ SYBR Green Supermix kit. The experimental conditions were: 25 μL of volume reaction, 3 mM of MgCl2, and 0.5 μL each of reverse and forward primers (10 pMol).
Expression levels were normalized using the expression of 36B4 gene as reference.
Expression levels were determined using the standard curve equation for both the housekeeping gene and the target gene (taking into account the specific PCR efficiency of each target gene).
The induction factor vs TGFβ1 was determined as follow: […]

In the case of `CNC(=O)c1cc(Oc2ccc(NC(=O)Nc3ccc(Cl)c(C(F)(F)F)c3)cc2)ccn1` [Sorafenib], the “Emax, reduction in VEGFR2 gene expression vs hHSC treated with TGFβ1 alone” value is recorded as −73%.
